Patent US8148427B2, “Benzylamine derivative or pharmaceutically acceptable acid addition salt thereof, and use thereof for medical purposes” (Toray Industries, Inc., priority 2007, dated 2012)

Test system: female Spague-Dawley rat
Test: Effect on cardiovascular system in conscious rats
Assay type: in vivo
Conditions: 3 mg/kg subcutaneously, 30 minutes, relative to before administration
Procedure: This method was carried out in accordance with the literature [Experimental Methods in Pharmacology, 5th Revised Edition, p. 168, KYODO ISHO SHUPPAN CO., LTD.]
Each female Spague-Dawley rat was anesthetized with ether, and a polyethylene cannula was inserted into the left common carotid artery and fixed therein, followed by subcutaneously indwelling a cannula for drug administration. After recovery from anesthesia, the mean blood pressure and the heart rate were measured under free moving conditions. After confirming that the blood pressure became stable, the drug was administered subcutaneously, and changes in the mean blood pressure and the heart rate were observed.

Nc1nc(CC(=O)Nc2ccc(CCNC[C@H](O)c3ccccc3)cc2)cs1 [Compound 11, reference compound]
Change in Heart Rate: 114.5 ± 3.1 %
